For 1 compound, GI50 and TGI results are on record in PubChem BioAssay (NCI).

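Each compound was tested at five concentrations against cells in 96-well plates for 48 hours. At the GI50, growth is halved. TGI: total growth inhibition.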

The assay concerns MDA-MB-468 breast. As to the kind of experiment: NCI anticancer screen, dose series, 48 h.

Regarding `O=[N+]([O-])c1ccc(Nc2ccc(Oc3ccc([N+](=O)[O-])cc3[N+](=O)[O-])cc2)c([N+](=O)[O-])c1`, the GI50 is 11.6 µM and the TGI was 69.7 µM.
